Data from paper PMC12007268.

molecular target: human neonatal Fc receptor as used in the ELISA (construct not stated), P55899;P61769; experiment: ELISA; settings: pH 7.4; read off a plot

response | Substance
0.14 OD450 | trastuzumab (wild-type Fc) L309E; Q311M; M428L
0.19 OD450 | trastuzumab (wild-type Fc) L309Y; Q311M; M428L
0.14 OD450 | trastuzumab (wild-type Fc) Q311M; M428L
0.13 OD450 | trastuzumab (wild-type Fc) Q311R; M428L
